Biological target: T1, 5-LO (Homo sapiens, UniProt P09917)
T1 sequence (P09917 1-674): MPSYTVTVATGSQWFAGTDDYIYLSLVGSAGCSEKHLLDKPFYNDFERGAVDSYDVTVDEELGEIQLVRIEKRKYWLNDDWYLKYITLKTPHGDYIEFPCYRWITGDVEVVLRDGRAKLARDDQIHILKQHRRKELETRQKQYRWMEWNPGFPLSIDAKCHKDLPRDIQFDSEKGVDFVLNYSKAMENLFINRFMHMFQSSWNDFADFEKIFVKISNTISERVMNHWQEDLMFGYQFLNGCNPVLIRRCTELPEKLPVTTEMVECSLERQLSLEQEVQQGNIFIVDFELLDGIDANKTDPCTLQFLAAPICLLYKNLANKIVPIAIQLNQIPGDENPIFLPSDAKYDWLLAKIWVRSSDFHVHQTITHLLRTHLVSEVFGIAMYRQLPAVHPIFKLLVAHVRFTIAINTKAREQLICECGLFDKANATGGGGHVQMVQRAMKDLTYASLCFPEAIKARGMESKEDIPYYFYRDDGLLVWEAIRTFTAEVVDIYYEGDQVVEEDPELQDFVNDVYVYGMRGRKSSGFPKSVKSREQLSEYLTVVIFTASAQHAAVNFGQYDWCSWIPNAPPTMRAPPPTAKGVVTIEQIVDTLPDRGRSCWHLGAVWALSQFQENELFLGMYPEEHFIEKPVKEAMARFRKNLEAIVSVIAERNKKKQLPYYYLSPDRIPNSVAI
Test: 5-LO product formation in intact PMNL
Conditions: read-out: IC50 for inhibition of 5-LO product formation, PMNL

AG825 showed an IC50 of 17 µM.
